Experimental findings from US20220331458A1, “AGENTS FOR CLEAVING LABELS FROM BIOMOLECULES IN VIVO” (TAGWORKS PHARMACEUTICALS B.V., priority 2019, published 2022) are described below.

The series can be described thus: ^111In biodistribution in normal mice after ^111In-trastuzumab-1.8 followed by 2.10 or vehicle. Type of series: in vivo. The settings on record: ^111In-trastuzumab-1.8 followed by 2.10 24 h post-mAb; euthanized 24 h later; SD, n = 4.

For `O=C(CCCC(=O)Nc1cnccc1-c1nnc(-c2ccncc2NC(=O)CCCC(=O)NCCOCCOCCOCCOCCOCCOCCOCCOCCOCCO)nn1)NCCOCCOCCOCCOCCOCCOCCOCCOCCOCCO` [Compound 2.10, N^1,N^1′-(4,4′-(1,2,4,5-Tetrazine-3,6-diyl)bis(pyridine-4,3-diyl))bis(N^5-(29-hydroxy-3,6,9,12,15,18,21,24,27-nonaoxanonacosyl)glutaramide)], the “^111In biodistribution, Lung” value amounted to 2.13 ± 0.41 % injected dose per gram.
